The text below walks through data of patent US20220233523A1, “ANTIBIOTIC POTENTIATION FOR NONTUBERCULOUS MYCOBACTERIAL DISEASE” (priority 2019, published 2022).

The experiment has as its system MAH104 biofilms. It is filed as cell-based, Mycobacterium avium subsp hominissuis 104 (MAH104). The following applies: Biolog PM1/PM2A plates. How it is done:
Metabolic phenotype study was performed with planktonic and biofilm cultures using the 96-well plates PM1 and PM2A (BIOLOG™, Hayward, Calif.). The assays with planktonic cells and biofilms were made at the same time. Each plate contains carbon substrates and one negative control well, in which the bacteria is tested without any substrate. The tests with planktonic and biofilm cultures were performed at the same time and the culture inoculum have the same number of passages. […] The experiments were made as an end-point assay.
The cultures of biofilms were established for 7 days in regular polystyrene 96 well plates, not in PM Biolog plates, as described above with a minor difference. […] (total of 14 days of biofilm incubated at 37° C.). To obtain spectrophotometric measurements from biofilm cultures (O.D.590 nm), the plate was centrifuged for 20 minutes at 3500 rpm at 20° C., which reduce bacteria interference with the readings, and biofilm supernatant was transferred to a new 96 well plates for O.D.590 nm measurement.
Experiments were performed three times as an end-point assay. […] Abiotic reductions of the Redox dye were assessed through adding bacteria-free GN/GP-IF-0a fluid in the wells. […]

In the case of `O=C(O)CCC(=O)C(=O)O` [α-Keto-Glutaric acid], the “metabolized by biofilm cultures” value was “unable to metabolize”.
